The values below are quoted from earlier work in patent publication US12076312B2, “Repurposing anti-androgen therapy for COVID-19 and immunotherapy” (Wisconsin Alumni Research Foundation, priority 2021, dated 2024).

This data set relates to ligand binding domain of the AR in LNCaP cells. Particulars: cited from earlier work.

For the molecule `CNC(=O)c1ccc(N2C(=S)N(c3cnc(C#N)c(C(F)(F)F)c3)C(=O)C23CCC3)cc1F` [Apalutamide], the “greater affinity for ligand binding domain of the AR compared with bicalutamide” value is on record as 7- to 10 fold.
